According to PMC11926880, “Procognitive Potential of Neuroprotective Triazine 5-HT6 Receptor Antagonists Tested on Chronic Activity In Vivo in Rats: Computer-Aided Insight into the Role of Chalcogen-Differences on the Pharmacological Profile” (ACS Chemical Neuroscience, 2025):

What was measured:
[1] = pharmacokinetics in serum after single i.p. administration; format: in vivo, rat; settings: 1 mg/kg i.p.
Procedure: (§1) Standard laboratory food (LSM-B) and filtered water as well as environment enrichment were freely available. Animals were randomly divided into treatment groups using a computer-based random order generator. All of the experiments were performed by two observers unaware of the treatment applied between 9:00 and 14:00 on separate groups of animals.
Rats were injected with the investigated compounds once (in pharmacokinetic studies) and for 21 days (in behavioral studies), and afterward, behavioral tests were conducted and tissue collection was done, as required. For pharmacokinetic studies, animals were fasted prior to dosing by withholding food but not water overnight. After dosing, the food was withheld for an additional 8 h. […]
The serum concentration–time data were analyzed by a noncompartmental method using the WinNonlin 8.2 nonlinear least-squares regression program (Pharsight Corporation, a Certara Company, Princeton, NJ, USA) to obtain pharmacokinetic parameters. […] The area under the serum concentration–time curve from time zero to time t (AUC0–t), where t is the time of the last measurable sample, was calculated according to the linear trapezoidal rule. […] The clearance (CL/F) was calculated as D/AUC0–∞, and the volume of distribution based on the terminal phase (Vz/F) was estimated as D/(λz·AUC0–∞), where F is the bioavailability of intraperitoneal administration.

[2] = low concentrations (WA-22 up to 0.15 mmol/L; PPK-32 at the lowest concentrations)
[3] = set-up: method as in PMID 38190615, PMID 35228010; settings: caffeine as permeable reference; cited from earlier work
[4] = kidneys, 1 mg/kg i.p.; cited from earlier work
rats = assay: NORT after 21 day administration, discrimination index; format: in vivo, rat; settings: i.p., 21 days, reversal of (+)MK-801-induced memory impairments
Procedure: as §1
In the NOR test (NORT), rats were randomly divided into experimental groups (n = 8/group). […] All compounds were prepared immediately before administration and were injected intraperitoneally (i.p.) in a constant volume of 2 mL/kg. […] The control group received 1% Tween 80 on the same schedule.
The test was carried out according to the method described by Ennaceur.[46] NORT was conducted in two black-painted wood boxes (60 cm × 60 cm × 60 cm). A video camera mounted above the boxes recorded all experiments. Two days before the test, the rats were placed in the empty experimental boxes for 5 min as a habituation to the test area. On the third day, the test was performed in 2 trials lasting for 3 min at one-hour intervals. […] The exploration time (E) of the objects (such as looking, licking, sniffing, or touching while sniffing) during T2 was measured, and the discrimination index (DI) was calculated according to the following formula: DI = (EB – EA)/(EA + EB). […]

CN1CCN(c2nc(N)nc(C(C)(C)[Se]c3ccc4ccccc4c3)n2)CC1 [PPK-32]
Vz/F relative to average volume of total body water in rats (0.67 L/kg) [1]: ~82 fold | antioxidant activity compared to vitamin C [2]: weaker action than that of its S-analogue but distinctly stronger than vitamin C | relative PeC (Pe/Pe of caffeine in the assay) [3]: 2.88 | t1/2λz [4]: 44 min

CN1CCN(c2nc(N)nc(C(C)(C)Sc3ccc4ccccc4c3)n2)CC1 [WA-22, 4-(4-methylpiperazin-1-yl)-6-(2-(naphthalen-2-ylthio)propan-2-yl)-1,3,5-triazin-2-amine]
minimal active chronic dose (rats): 1 mg/kg/day | antioxidant activity compared to vitamin C [2]: surpasses vitamin C
